Test results as given in ChEMBL document CHEMBL1909493, “Synthesis and biological evaluation of novel analogues of the pan class I phosphatidylinositol 3-kinase (PI3K) inhibitor 2-(difluoromethyl)-1-[4,6-di(4-morpholinyl)-1,3,5-triazin-2-yl]-1H-benzimidazole (ZSTK474)” (J Med Chem, 2011).

Sequences of proteins named here, by UniProt entry; tags and fusion partners are left off.
UniProt P42337, whole entry: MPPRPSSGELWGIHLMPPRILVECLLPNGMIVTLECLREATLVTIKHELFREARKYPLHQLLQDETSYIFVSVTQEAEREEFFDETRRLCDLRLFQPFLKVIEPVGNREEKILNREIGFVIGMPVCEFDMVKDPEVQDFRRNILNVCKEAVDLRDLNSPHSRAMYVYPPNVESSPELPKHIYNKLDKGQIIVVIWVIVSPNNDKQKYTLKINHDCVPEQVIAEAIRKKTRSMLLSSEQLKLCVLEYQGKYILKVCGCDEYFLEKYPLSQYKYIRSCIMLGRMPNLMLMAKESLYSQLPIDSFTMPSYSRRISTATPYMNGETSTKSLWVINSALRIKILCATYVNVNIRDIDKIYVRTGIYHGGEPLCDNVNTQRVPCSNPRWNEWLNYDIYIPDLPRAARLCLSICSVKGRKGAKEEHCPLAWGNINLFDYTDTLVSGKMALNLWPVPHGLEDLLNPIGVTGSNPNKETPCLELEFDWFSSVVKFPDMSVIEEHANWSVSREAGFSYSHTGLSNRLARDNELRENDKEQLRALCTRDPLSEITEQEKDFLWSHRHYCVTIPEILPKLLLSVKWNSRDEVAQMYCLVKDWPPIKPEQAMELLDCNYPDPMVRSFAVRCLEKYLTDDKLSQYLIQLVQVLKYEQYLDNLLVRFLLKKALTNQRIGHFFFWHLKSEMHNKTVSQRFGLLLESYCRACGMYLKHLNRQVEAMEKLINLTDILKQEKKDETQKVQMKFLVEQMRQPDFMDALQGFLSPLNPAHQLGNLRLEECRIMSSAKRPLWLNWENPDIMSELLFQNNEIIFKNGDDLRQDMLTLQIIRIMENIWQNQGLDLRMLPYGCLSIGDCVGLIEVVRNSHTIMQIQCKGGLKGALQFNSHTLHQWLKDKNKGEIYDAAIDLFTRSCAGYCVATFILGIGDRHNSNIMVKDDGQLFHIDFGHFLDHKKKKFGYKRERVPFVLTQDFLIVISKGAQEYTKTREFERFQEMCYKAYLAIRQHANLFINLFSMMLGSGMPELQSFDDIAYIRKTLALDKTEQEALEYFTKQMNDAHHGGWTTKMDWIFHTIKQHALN

Tests used:
[1] = target: Phosphatidylinositol 4,5-bisphosphate 3-kinase catalytic subunit alpha isoform (Mus musculus, UniProt P42337); assay: Inhibition of mouse recombinant PI3K p110alpha expressed in Sf21 insect cells using phosphatidylinositol as substrate after 1 hr by phosphoimaging
[2] = cells; conditions: Homo sapiens, NZOV9
[3] = cells; conditions: Homo sapiens, NZB5
[4] = target: T1, Phosphatidylinositol 4,5-bisphosphate 3-kinase catalytic subunit delta isoform (Homo sapiens, UniProt O00329); assay: Inhibition of human His-tagged PI3K p110delta after 2 hrs by HTRF assay
T1 sequence (O00329 whole entry): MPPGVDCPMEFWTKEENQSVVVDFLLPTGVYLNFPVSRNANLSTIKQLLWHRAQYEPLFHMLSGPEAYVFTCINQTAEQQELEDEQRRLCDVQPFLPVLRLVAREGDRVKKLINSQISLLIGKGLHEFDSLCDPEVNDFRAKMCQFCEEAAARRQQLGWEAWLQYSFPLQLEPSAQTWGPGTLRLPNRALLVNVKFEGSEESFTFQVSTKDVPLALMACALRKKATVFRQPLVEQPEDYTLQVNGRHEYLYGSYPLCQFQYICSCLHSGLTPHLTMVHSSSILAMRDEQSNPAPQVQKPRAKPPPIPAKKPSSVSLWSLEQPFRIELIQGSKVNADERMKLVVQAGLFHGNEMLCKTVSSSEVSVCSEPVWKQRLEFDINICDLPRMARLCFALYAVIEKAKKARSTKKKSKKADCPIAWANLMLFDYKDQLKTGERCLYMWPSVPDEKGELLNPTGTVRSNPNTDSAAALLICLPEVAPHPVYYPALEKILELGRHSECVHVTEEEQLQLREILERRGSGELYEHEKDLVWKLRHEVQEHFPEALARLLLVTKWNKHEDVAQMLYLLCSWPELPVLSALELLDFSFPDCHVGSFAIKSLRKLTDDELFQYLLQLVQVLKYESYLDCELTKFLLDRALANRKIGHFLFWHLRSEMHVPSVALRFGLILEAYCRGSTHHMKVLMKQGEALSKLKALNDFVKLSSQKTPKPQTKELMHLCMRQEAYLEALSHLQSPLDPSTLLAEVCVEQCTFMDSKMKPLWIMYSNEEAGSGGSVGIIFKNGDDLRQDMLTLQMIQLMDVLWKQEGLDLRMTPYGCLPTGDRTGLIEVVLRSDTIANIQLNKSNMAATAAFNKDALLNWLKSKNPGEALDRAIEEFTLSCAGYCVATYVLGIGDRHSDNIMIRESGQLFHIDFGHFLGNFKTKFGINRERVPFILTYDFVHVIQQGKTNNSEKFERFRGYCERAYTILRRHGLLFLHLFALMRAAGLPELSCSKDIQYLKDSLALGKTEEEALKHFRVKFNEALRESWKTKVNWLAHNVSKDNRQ

[5] = Inhibition of bovine recombinant PI3K p110delta expressed in Sf21 insect cells using phosphatidylinositol as substrate after 1 hr by phosphoimaging; design: species or system Bos taurus
[6] = cells; conditions: Homo sapiens, HCT-116

Compound | IC50 [2] [nM] | IC50 [3] [nM] | other results
CCCCOc1cccc2c1nc(C(F)F)n2-c1nc(N2CCOCC2)nc(N2CCOCC2)n1 |  |  | IC50 [1]: 28 nM
NC(=O)c1cccc2c1nc(C(F)F)n2-c1nc(N2CCOCC2)nc(N2CCOCC2)n1 | 110 |  | 
COc1c(O)ccc2c1nc(C(F)F)n2-c1nc(N2CCOCC2)nc(N2CCOCC2)n1 |  | 9 | IC50 [1]: 32 nM
COc1cc(N)cc2c1nc(C(F)F)n2-c1nc(N2CCOCC2)nc(N2CCOCC2)n1 |  |  | IC50 [4]: 1.7 nM; IC50 [5]: 0.38 nM; IC50 [6]: 17 nM
Oc1cccc2c1nc(C(F)F)n2-c1nc(N2CCOCC2)cc(N2CCOCC2)n1 | 110 |  | 
FC(F)c1nc2ccccc2n1-c1cc(N2CCOCC2)nc(N2CCOCC2)n1 |  | 420 | 
COc1cccc2c1nc(C(F)F)n2-c1cc(N2CCOCC2)nc(N2CCOCC2)n1 | 110 | 430 | 
